Experimental data as given in ChEMBL document CHEMBL1138079.

What was measured:
SK-OV-3 [1] = assay: Ratio for antiproliferative activity against NTR- SKOV3 cells to NTR+ SKOV3 cells after 18 hrs
SK-OV-3 [2] = assay: Antiproliferative activity against NTR expressing human SKOV3 cells after 18 hrs; type: functional, cell-based
Outline: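 SKOV3 ovarian carcinoma cells stably transduced with a retroviral NTR vector and selected with 1 mg/mL G418, compared with parental SKOV3. Plated at 20 000 cells/well and allowed to adhere 24 h. Prodrug range given for 18 h, then replaced with drug-free medium. MTT survival read 2 days later. Ratio is NTR⁻/NTR⁺ IC50.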

[3] = Half life in phosphate buffer at pH 7 at 37 degC assessed as reduction by Escherichia coli nitroreductase by NR assay

SMILES: O=[N+]([O-])c1ccc(C2CCOP(=O)(N(CCCl)CCCl)O2)cc1 (stereo not drawn)
- Ratio (SK-OV-3 [1]): 200 and > 230
- IC50 (SK-OV-3 [2]): 2.5 µM and 4.3 µM
- T1/2 [3]: 4.8 min and 7.3 min

Values joined by “and” are separate entries in the source; they are usually repeats but may differ in a detail not shown here. Equal entries are not always repeated.
